AlphaSeq binding of Ab-14 heavy chain variants to a spike HR2 peptide

Data: MIT Lincoln Laboratory AlphaSeq set, Li et al. 2023, doi:10.1038/s41467-023-39022-2, as distributed in FLAb.

Target: peptide PDVDLGDISGINAS, taken from heptad repeat 2 (HR2) of SARS-CoV-2 spike.

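The variants were designed computationally from a first round of random CDR variants and then made and measured. Their group label is 14H_En_HC (En: ensemble of fine-tuned language models; HC: hill climbing; a sequence that several methods proposed may carry one label only). In AlphaSeq, yeast of one mating type display the scFv and yeast of the other type display the target. After mating in shaken culture at 30 °C for 16 h, diploids were selected and their barcode pairs sequenced. Read counts were normalised to the haploid input and turned into Kd by a linear fit to BCL2-family pairs of known affinity, for each replicate. Each pool was mated in six replicate cultures.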

The variants keep the light chain, the linker and the frameworks of Ab-14 (scFv order VH, the linker GGGGSGGGGSGGGGS, VL).
VH: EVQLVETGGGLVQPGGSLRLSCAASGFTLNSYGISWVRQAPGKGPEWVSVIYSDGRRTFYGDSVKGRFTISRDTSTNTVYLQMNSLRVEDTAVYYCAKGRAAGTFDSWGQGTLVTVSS
VL: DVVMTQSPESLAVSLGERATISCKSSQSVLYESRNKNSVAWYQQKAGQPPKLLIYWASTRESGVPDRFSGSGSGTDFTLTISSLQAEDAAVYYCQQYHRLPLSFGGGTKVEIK

The parent's heavy chain CDRs are GFTLNSYGIS, VIYSDGRRTFYGDSVK, GRAAGTFDS; each variant's own CDRs replace them letter for letter.
Affinities are written as log10 Kd with Kd in nM; a lower number is a better binder.
Replicates are averaged; those with no signal do not enter the mean.
An entry "n.d." has no value in the source: the pair was not observed among the diploids in that replicate. This suggests poor binding but is not conclusive.
The parent sequence was in this pool as ten entries: three were never detected, three once, and four in most replicates, with averages from 0.34 to 2.37.
Empty control strains, which show no peptide, gave a signal in 1% of pairings with all heavy chain designs; the median was 2.08 and 95% of these signals were weaker than 0.84. No background was subtracted. For each scFv, signals with the empty controls are counted beside the result, with their mean in brackets.
The authors averaged sequences with at least three values out of six and counted those with two or fewer as poor binders.
Values of this round are not directly comparable with the first-round values of the same sequences.

CDR-H1,CDR-H2,CDR-H3,"log10 Kd, replicates",mean log10 Kd (nM),control signals
GFDLNEYGIS,VIYADGVRTFYSDSVK,GENAGTFDI,-0.40 -0.20 -0.19 -0.53 -0.28 -0.28,-0.31,0 of 18
GFDLNEYGIS,VIYADGRRTAYADSVK,GEAAGTFDM,-0.33 -0.15 -0.32 -0.59 -0.46 -0.49,-0.39,0 of 18
GFNLDEYGIS,VIYADGRRTFYADSVK,GKHAGTFDT,-0.47 -0.37 -0.67 -0.71 -0.84 -0.09,-0.52,0 of 18
GFDLEDYGIS,VIYADGMRTQYADSVK,GEAAGTFDL,0.54 0.83 0.35 0.34 0.73 0.76,0.59,0 of 18
GFNLDEYGIS,VIYADGRRTFYADSVK,GEVAGTFDL,0.08 -0.13 -0.22 -0.26 -0.23 -0.15,-0.15,0 of 18
GFDLNEYGIS,VIYADGRRTAYLDSVK,GQLAGTFDV,-0.12 0.12 -0.64 0.07 -0.03 -0.24,-0.14,0 of 18
GFDLNEYGIS,VIYADGRRTFYADSVK,GEEAGTFDM,-0.41 -0.28 -0.65 -0.57 -0.49 -0.53,-0.49,0 of 18
GFDLNEYGIS,VIYADGRRTFYADSVK,GKIAGTFNM,n.d. n.d. -0.80 0.11 0.58 -0.53,-0.16,0 of 18
GFNLNEYGIS,VIYADGRRTFYADSVK,GEIAGTFDA,-0.71 -0.65 -0.69 -0.71 -0.83 -0.48,-0.68,0 of 18
GFDLNEYGIS,VIYADGVRTAYLDSVK,GEAAGTFDS,-0.04 -0.50 -0.43 -0.66 -0.51 -0.46,-0.43,0 of 18
GFDLNEYGIS,VIYADGVRTAYDDSVK,GQVAGTFDS,-0.31 0.08 -1.04 -0.55 -0.41 0.04,-0.37,0 of 18
GFDLNEYGIS,VIYADGRRTAYADSVK,GNVAGTFDS,0.02 -0.56 -0.48 -0.29 -0.38 -0.05,-0.29,1 of 18 (1.09)
GFDLNEYGIS,VIYADGRRTFYKDSVK,GELAGTFDQ,-0.41 -0.61 -0.53 -0.62 -0.71 -0.48,-0.56,0 of 18
GFDLNEYGIS,VIYADGRRTFYADSVK,GNVAGTFFV,-0.17 -0.14 0.21 -0.05 -0.03 0.28,0.02,0 of 18
GFDLNEYGIS,VIYADGRRTFYTDSVK,GETAGTFDQ,-0.22 -0.71 -0.49 -0.47 -0.47 -0.25,-0.44,1 of 18 (2.32)
GFDINEYGIS,VIYADGRRTYYADSVK,GNQGGTFDL,0.67 -0.62 n.d. -0.82 1.35 1.27,0.37,0 of 18
GFNLNEYGIS,VIYADGRRTFYTDDVK,GENAGTFDL,-0.63 -0.92 -0.88 -0.98 -0.87 -0.80,-0.85,0 of 18
GFDLNEYGIS,VIYADGRRTAYTDSVK,GEIAGTFDS,-0.80 -0.52 -0.78 -0.42 -0.70 -0.36,-0.59,0 of 18
GFNLNEYGIS,VIYADGRRTFYTDDVK,GEHAGTFDL,-0.60 -1.86 -1.45 n.d. n.d. -1.95,-1.46,0 of 18
GFDLNEYGIS,VIYADGLRTAYADSVK,GQLAGTFDQ,-0.19 -0.68 -0.76 -0.77 -0.81 -0.60,-0.63,0 of 18
GFDLDEYGIS,VIYADGRRTYYADSVK,GQNAGTFDQ,-0.65 -0.75 -0.83 -0.95 -0.93 -0.73,-0.81,0 of 18
GFDLNEYGIS,VIYADGMRTYYIDSVK,GNVAGTFDV,0.22 -0.32 -0.28 0.09 -0.29 0.05,-0.09,0 of 18
GFDLEDYGIS,VIYADGRRTSYADSVK,GEAAGTFDL,-0.46 -0.18 n.d. -0.10 -0.03 -0.79,-0.31,0 of 18
GFDLNEYGIS,VIYADGMRTFYSDSVK,GENAGFFDV,n.d. 3.77 n.d. n.d. n.d. n.d.,3.77,0 of 18
GFDLNEYGIS,VIYADGRRTFYTDSVK,GEFAGTFDQ,-0.47 -0.58 -0.79 -0.70 -0.41 -0.49,-0.57,0 of 18
GFDLEDYGIS,VIYADGSRTAYADSVK,GNVAGTFDS,0.81 -0.39 -0.27 -0.38 -0.62 -0.08,-0.16,0 of 18
GFDLNEYGIS,VIYADGVRKFYADSVK,GNTAGTFDV,-0.55 -0.81 -0.51 -0.68 -0.38 -0.42,-0.56,0 of 18
GFDLDEYGIS,VIYADGMRTFYTDSVK,GEEAGTFDA,0.06 -0.15 -0.21 -0.25 -0.18 0.15,-0.10,0 of 18
GFDLNEYGIS,VIYADGRRTYYIDSVK,GENAGTFDM,-0.63 -0.85 -0.08 -0.97 -0.40 -0.59,-0.59,0 of 18
GFQLNEYGIS,VIYADGRRTFYADSVK,GNQAGTFDQ,-0.06 -0.38 -0.03 -0.27 -0.37 -0.09,-0.20,1 of 18 (1.15)
GFDLNEYGIS,VIYADGMRTFYSDSVK,GEAAGTFDQ,-0.35 -0.34 -0.53 -0.52 -0.30 -0.23,-0.38,0 of 18
GFDLNEYGIS,VIYADGHRTFYSDSVK,GQSAGTFDV,-0.24 -0.49 -0.25 -0.27 -0.46 -0.16,-0.31,2 of 18 (2.23)
GFDLNEYGIS,VIYADGRRTFYSDSVK,GEAAGTFDN,1.02 0.35 0.33 0.12 0.19 0.53,0.42,0 of 18
GFDLDEYGIS,VIYADGRRTFYQDSVK,GQAAGTFDL,0.05 -0.53 -0.22 1.48 0.27 0.32,0.23,0 of 18
GFDLNEYGIS,VIYADGRRTFYSDSVK,GEIAGTFDQ,-0.88 -0.68 -0.91 -0.96 -0.34 -0.19,-0.66,1 of 18 (0.65)
GFDLNEYGIS,VIYADGKRTFYTDSVK,GEHAGIFDV,-0.18 -0.24 -0.43 -0.48 -0.25 -0.07,-0.27,1 of 18 (3.56)
GFDLNEYGIS,VIYADGRRTFYTDSVK,GELAGTFDS,-0.41 -0.27 -0.21 -0.47 -0.30 -0.22,-0.32,0 of 18
GFDLNEYGIS,VIYADGRRKFYADSVK,GENAGTFNV,-0.19 -0.28 -0.48 -0.41 -0.49 0.00,-0.31,2 of 18 (2.31)
GFDLNEYGIS,VIYADGRRTFYSDSVK,GQTAGTFDE,-0.53 -0.51 1.65 -0.95 -0.67 -0.55,-0.26,0 of 18
GFDLNEYGIS,VIYADGQRTFYIDSVK,GENAGTFDV,0.47 0.02 0.18 -0.62 -0.25 -0.09,-0.05,0 of 18
GFDLNEYGIS,VIYADGRRTFYADSVK,GEAAGTFLQ,0.06 -0.05 -0.23 -0.34 -0.19 0.10,-0.11,0 of 18
GFDLNEYGIS,VIYADGRRTAYTDSVK,GQLAGTFDS,-0.07 -0.48 -0.39 -0.81 -0.90 -0.30,-0.49,0 of 18
GFDLNEYGIS,VIYADGRRTAYADSVK,GNAAGTFNV,-0.31 -0.63 -0.60 -0.92 -0.69 -0.62,-0.63,1 of 18 (1.95)
GFDLNEYGIS,VIYADGRRTFYLDSVK,GQLAGTFDM,-0.51 -0.77 -0.85 -0.56 -0.78 -0.37,-0.64,0 of 18
GFDLNEYGIS,VIYADGRRTFYADSVK,GEVGGTFDV,-0.06 0.02 -0.29 -0.28 -0.16 0.09,-0.11,0 of 18
GFDLNEYGIS,VIYADGRRTFYKDSVK,GEAAGTFDT,0.04 -0.08 -0.33 -0.30 -0.17 -0.07,-0.15,0 of 18
GFNLNEYGIS,VIYADGRRSFYSDSVK,GEEAGTFDV,-0.68 -0.65 -0.47 -0.83 -1.03 -0.72,-0.73,1 of 18 (2.19)

The opening 7 entries, copied out:

CDR-H1,CDR-H2,CDR-H3,"log10 Kd, replicates",mean log10 Kd (nM),control signals
GFDLNEYGIS,VIYADGVRTFYSDSVK,GENAGTFDI,-0.40 -0.20 -0.19 -0.53 -0.28 -0.28,-0.31,0 of 18
GFDLNEYGIS,VIYADGRRTAYADSVK,GEAAGTFDM,-0.33 -0.15 -0.32 -0.59 -0.46 -0.49,-0.39,0 of 18
GFNLDEYGIS,VIYADGRRTFYADSVK,GKHAGTFDT,-0.47 -0.37 -0.67 -0.71 -0.84 -0.09,-0.52,0 of 18
GFDLEDYGIS,VIYADGMRTQYADSVK,GEAAGTFDL,0.54 0.83 0.35 0.34 0.73 0.76,0.59,0 of 18
GFNLDEYGIS,VIYADGRRTFYADSVK,GEVAGTFDL,0.08 -0.13 -0.22 -0.26 -0.23 -0.15,-0.15,0 of 18
GFDLNEYGIS,VIYADGRRTAYLDSVK,GQLAGTFDV,-0.12 0.12 -0.64 0.07 -0.03 -0.24,-0.14,0 of 18
GFDLNEYGIS,VIYADGRRTFYADSVK,GEEAGTFDM,-0.41 -0.28 -0.65 -0.57 -0.49 -0.53,-0.49,0 of 18